Columns and labels:
[1] = target: CLDN18.2 stably expressed on CHOS-CLDN18.2 cells (UniProt P56856); test: FACS; settings: bispecific antibody
[2] = target: CLDN18.2 stably expressed on CHOS-CLDN18.2 cells (UniProt P56856); test: FACS; settings: bispecific antibody; remark: listed apart in the source

“QP3693 (AMG910, CLDN18.2/CD3 bispecific antibody molecule from Amgen, built according to US20200055932A1)” gave an EC50 [1] of 68 nM and an EC50 [2] of 122 nM.

— patent US20240294640A1
